From US8771724B2, “Percutaneous absorption enhancer and transdermal preparation using the same” (TOA EIYO Ltd., priority 2008, dated 2014)

Test: Permeation test, enhancing effect on percutaneous absorption in solution system
Conditions: ratio with enhancer / control
Protocol: A permeation test was carried out based on the following procedure. First, an excised skin (Yucatan miniature swine or hairless mouse) was placed in a vertical diffusion cell in which temperature was kept at 37° C., and a receptor phase was filled with 7 mL of a phosphate-buffered saline (PBS, a pH of 7.5). The whole was left to stand still for one hour. […] Then, the test was started. […] Note that after each of the collections, an equivalent amount of PBS was supplemented into the receptor phase. Each PBS collected from the receptor phase was measured for a drug concentration by an HPLC method. […] Further, the slant of a permeation curve at the time when the permeation rate reached a steady state was used to calculate a skin permeation rate (μg/hr/cm^2).
An enhancing effect on drug permeation was evaluated for the case where a 1% isopropyl myristate solution was used as a control and for the case where 1% each of n-octyl-β-D-thioglucopyranoside and dioctyl sodium sulfosuccinate was added.

Percutaneous absorption enhancing action (Example/Comparative Example), cumulative permeation amount for 24 hours: 12 times
Percutaneous absorption enhancing action (Example/Comparative Example), skin permeation rate: 54 times
Structure (SMILES): CCOC(=O)[C@H](CCc1ccccc1)N[C@@H](C)C(=O)N1[C@H](C(=O)O)C[C@H]2CCCC[C@@H]21 [Trandolapril, trandolapril]
